Reference: patent publication US9814729B2, “Nerve agent antidotes” (dated 2017)

Assays:
[1] = system: Tetz model of SE in Wistar rats; test: Tetz rat model of severe SE induced by high-dose lithium and pilocarpine (mortality, seizures, spikes, Hjorth function, EEG power); settings: for Hjorth function (seizure severity) over first 6 hrs after treatment vs controls not receiving anticonvulsants (FIG. 3): monotherapy: diazepam 5 mg/kg, dizocilpine 1 mg/kg; for stopping of SE by monotherapy: valproate 30 mg/kg, brivaracetam 10 mg/kg; for Hjorth 1 hr: first 1 hr after treatment; for Hjorth 1 hr / Seizures/day / Spikes/day / Hjorth 6 hr: mean; for Seizures/day: number of seizures in first 24 hrs; for Hjorth 6 hr: first 6 hrs after treatment; for mortality: controls 52%
[2] = system: SE in Sprague-Dawley rats; test: SE model in Sprague-Dawley rats with scopolamine, EEG power after treatment; settings: treatment 40 min. after induction of SE, mean
[3] = system: Tetz model of SE in Wistar rats; test: Spontaneous recurrent seizures 6-8 weeks after treatment (epileptogenesis), Tetz model; settings: diazepam 5 mg/kg
[4] = system: rat model of severe SE induced by high-dose lithium and pilocarpine; test: Toxicity score (locomotion, righting reflex, consciousness) in the Tetz model; settings: diazepam 20 mg/kg
[5] = ketamine 10 mg/kg, diazepam 1, 5, 10 or 20 mg/kg
[6] = diazepam 5 mg/kg after 1 hr delay
[7] = diazepam 5 mg/kg after 2 hr delay

Question: C[C@]12N[C@H](Cc3ccccc31)c1ccccc12 was tested. Which “Hjorth function (seizure severity) over first 6 hrs after treatment vs controls not receiving anticonvulsants (FIG. 3)” value ([1]; ketamine 10 mg/kg) did it give?
Answer: Its value is “did not reduce”.

Question: Which “stopping of SE by monotherapy” value [1, 5] does the source give for CCC[C@@H]1CC(=O)N([C@@H](CC)C(N)=O)C1 here?
Answer: The value was “failed to stop SE”.

Question: For CCCC(CCC)C(=O)O, which “Power integrals 1 hr after treatment” value ([2]; valproate 270 mg/kg) is on record?
Answer: The value was 940.5 decibel minutes.

Question: For CNC1(c2ccccc2Cl)CCCCC1=O (centres unmarked), which “Power integrals 1 hr after treatment” value ([2]; ketamine 90 mg/kg) is on record?
Answer: The value was 436.7 decibel minutes.

Question: And the “stopping of SE by monotherapy” value [1, 5]?
Answer: The value was “failed to stop SE”.

Question: And the “Hjorth 1 hr” value ([1]; ketamine 10 mg/kg)?
Answer: Its value is 3681.

Question: What about the Seizures/day ([1]; ketamine 10 mg/kg) of the same molecule?
Answer: Its Seizures/day is 35.

Question: What about the Spikes/day ([1]; ketamine 10 mg/kg, number of spikes in 24 hrs) of the same molecule?
Answer: The Spikes/day was 2166.

Question: And the “Hjorth function (seizure severity) over first 6 hrs after treatment vs controls not receiving anticonvulsants (FIG. 3)” value ([1]; ketamine 10 mg/kg)?
Answer: The value was “did not reduce”.

Question: What does the source list for CN1C(=O)CN=C(c2ccccc2)c2cc(Cl)ccc21?
Answer: frequency of spontaneous recurrent seizures vs controls not receiving anticonvulsants (FIG. 6) [3]: did not reduce; consciousness, locomotion and righting reflex [4]: induced coma; consciousness, locomotion and righting reflex ([4]; listed as DZ): severely impaired locomotion and the righting reflex; Hjorth 1 hr ([1]; diazepam 1 mg/kg): 1780; Hjorth 6 hr ([1]; diazepam 1 mg/kg): 6534; Seizures/day ([1]; diazepam 1 mg/kg): 107; Spikes/day ([1]; diazepam 1 mg/kg, number of spikes in 24 hrs): 5179; Hjorth 1 hr [1, 6]: 3588; Seizures/day [1, 6]: 101; Hjorth 1 hr [1, 7]: 2880; Seizures/day [1, 7]: 83; mortality ([1]; diazepam 5 mg/kg): 7%; Hjorth 1 hr ([1]; diazepam 5 mg/kg): 2312; Hjorth 6 hr ([1]; diazepam 5 mg/kg): 5398; Spikes/day ([1]; diazepam 5 mg/kg): 2508; Seizures/day ([1]; diazepam 5 mg/kg): 115; Hjorth 1 hr ([1]; diazepam 10 mg/kg): 3362; Hjorth 6 hr ([1]; diazepam 10 mg/kg): 5398; Spikes/day ([1]; diazepam 10 mg/kg): 1134; Seizures/day ([1]; diazepam 10 mg/kg): 89; number of post-treatment seizures ([1]; diazepam 20 mg/kg, N.S. vs sham-injected controls (100±7)): 100±8; Hjorth 1 hr ([1]; diazepam 20 mg/kg): 2924; Hjorth 6 hr ([1]; diazepam 20 mg/kg): 8238; Spikes/day ([1]; diazepam 20 mg/kg): 1077; Seizures/day ([1]; diazepam 20 mg/kg): 100; Hjorth function compared to controls not receiving anticonvulsants (atropine group) ([1]; diazepam 1, 5, 10 or 20 mg/kg): did not reduce; seizure frequency compared to controls not receiving anticonvulsants (atropine group) ([1]; diazepam 1, 5, 10 or 20 mg/kg): did not reduce; mortality ([1]; diazepam 10-20 mg/kg): ≤ 7%; stopping of seizures ([1]; diazepam even at 20 mg/kg): did not stop seizures; stopping of SE by monotherapy [1, 5]: failed to stop SE; Hjorth function (seizure severity) over first 6 hrs after treatment vs controls not receiving anticonvulsants (FIG. 3) ([1]; ketamine 10 mg/kg): did not reduce

Question: How did the “Power integrals 1 hr after treatment” value ([2]; midazolam 9 mg/kg) turn out when Cc1ncc2n1-c1ccc(Cl)cc1C(c1ccccc1F)=NC2 was run?
Answer: The value was 716.7 decibel minutes.
